# Ab-14 light chain CDR variants: yeast mating affinities

Antigen: PDVDLGDISGINAS, a 14-residue peptide of the SARS-CoV-2 spike HR2 region.

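Variants in AAYL50 differ from the parent at up to three CDR positions; double and triple changes were sampled at random. The scFvs were displayed on barcoded MATa yeast, the peptide on MATalpha yeast. Mating (16 h, 30 °C) was followed by selection of diploids and sequencing of their barcodes. Read counts were normalised to the haploid input and turned into Kd by a linear fit to BCL2-family pairs of known affinity, for each replicate. The assay was run in three technical replicates.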

Parent: Ab-14, a human scFv built as VH, a 15-residue (Gly4Ser)3 linker, VL. Only the CDRs of the light chain vary.
VH: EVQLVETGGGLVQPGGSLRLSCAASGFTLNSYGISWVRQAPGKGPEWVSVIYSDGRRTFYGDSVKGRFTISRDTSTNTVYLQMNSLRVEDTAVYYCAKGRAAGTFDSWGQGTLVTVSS
VL: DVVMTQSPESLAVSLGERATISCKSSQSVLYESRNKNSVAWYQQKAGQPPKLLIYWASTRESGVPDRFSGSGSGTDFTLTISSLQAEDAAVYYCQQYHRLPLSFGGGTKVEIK

Changes read parent residue, position, new residue, counted from the first residue of the VL shown. Affinities are written as log10 Kd with Kd in nM; a lower number is a better binder. Averages over replicates are reported, and they cover detected replicates only. "no signal" marks a missing value. The strain was present, yet no cells mated with the target were sequenced in any replicate, which points to weak or no binding. Order: sorted from the lowest average up, undetected variants last. Three control strains display no target. For library AAYL50, 18% of the pairings with them gave a signal, with a median of 4.19 and one signal in twenty below 2.99, so weak values seen in few replicates may be background. Parent in this assay: reference entry 0.65, copy in this library 1.68.

{"changes": "S38A W56G E61F", "log10 Kd (nM), mean": "0.39", "seen in": "3 of 3"}
{"changes": "S26D Y31D", "log10 Kd (nM), mean": "0.53", "seen in": "3 of 3"}
{"changes": "Q27E E61D R99H", "log10 Kd (nM), mean": "1.01", "seen in": "3 of 3"}
{"changes": "S25G T59L S62N", "log10 Kd (nM), mean": "1.06", "seen in": "3 of 3"}
{"changes": "K24E Q96N Y97K", "log10 Kd (nM), mean": "2.04", "seen in": "3 of 3"}
{"changes": "V29F N35A N37V", "log10 Kd (nM), mean": "2.25", "seen in": "2 of 3"}
{"changes": "S25W S28R Q95S", "log10 Kd (nM), mean": "2.41", "seen in": "1 of 3"}
{"changes": "Q27K W56N S58K", "log10 Kd (nM), mean": "2.41", "seen in": "3 of 3"}
{"changes": "V29C S33M S103K", "log10 Kd (nM), mean": "2.64", "seen in": "3 of 3"}
{"changes": "S26I S58L S62T", "log10 Kd (nM), mean": "3.40", "seen in": "1 of 3"}
{"changes": "S26V R34A S38K", "log10 Kd (nM), mean": "3.40", "seen in": "2 of 3"}
{"changes": "S33C R34H Q95P", "log10 Kd (nM), mean": "3.49", "seen in": "1 of 3"}
{"changes": "K24R H98Q S103K", "log10 Kd (nM), mean": "3.57", "seen in": "3 of 3"}
{"changes": "R34Q N37I S38F", "log10 Kd (nM), mean": "4.20", "seen in": "2 of 3"}
{"changes": "K36E A40F Y97F", "log10 Kd (nM), mean": "4.24", "seen in": "1 of 3"}
{"changes": "Q27N S33G L100G", "log10 Kd (nM), mean": "4.58", "seen in": "3 of 3"}
{"changes": "K24S W56F S58P", "log10 Kd (nM), mean": "4.72", "seen in": "2 of 3"}
{"changes": "E32T V39P H98S", "log10 Kd (nM), mean": "5.18", "seen in": "2 of 3"}
{"changes": "Q27W Q95S L100I", "log10 Kd (nM), mean": "5.33", "seen in": "1 of 3"}
{"changes": "S33T N37F S38C", "log10 Kd (nM), mean": "5.37", "seen in": "1 of 3"}
{"changes": "R60L R99I S103Y", "log10 Kd (nM), mean": "5.94", "seen in": "1 of 3"}
{"changes": "S26L N35W S38C", "log10 Kd (nM), mean": "no signal", "seen in": "0 of 3"}
{"changes": "S38V W56M P101G", "log10 Kd (nM), mean": "no signal", "seen in": "0 of 3"}
{"changes": "R60E Q96W", "log10 Kd (nM), mean": "no signal", "seen in": "0 of 3"}
{"changes": "V29Y S62N P101W", "log10 Kd (nM), mean": "no signal", "seen in": "0 of 3"}
{"changes": "S25H Q27E R99Q", "log10 Kd (nM), mean": "no signal", "seen in": "0 of 3"}

The closing 3 entries, repeated:

{"changes": "R60E Q96W", "log10 Kd (nM), mean": "no signal", "seen in": "0 of 3"}
{"changes": "V29Y S62N P101W", "log10 Kd (nM), mean": "no signal", "seen in": "0 of 3"}
{"changes": "S25H Q27E R99Q", "log10 Kd (nM), mean": "no signal", "seen in": "0 of 3"}

Values reported by Engelhart et al. 2022, doi:10.1038/s41597-022-01779-4 (FLAb copy).